Earlier results in patent US7655374B2, “Fixing liquid, toner fixing method and apparatus, and image forming method and apparatus” (Ricoh Company, Ltd., priority 2005, dated 2010).

Conditions: in vivo, po

Row | Substance | LD50
1 | diethoxyethyl succinate | 5000 mg/kg
2 | dimethylsiloxane | 15000 mg/kg
